Data published in patent US20230286995A1, “METABOLICALLY STABLE PYRIMIDINYL DIHYDROQUINOXALINONES AS TUBULIN POLYMERIZATION INHIBITORS” (UNIVERSITY OF TENNESSEE RESEARCH FOUNDATION, priority 2022, published 2023).

Legend:
A375/TxR cells = assay: Cell apoptosis analysis (Annexin V-FITC/PI); assay type: cell-based, human; conditions: 2 nM, 24 h; control 9%
A375 = assay: Cytotoxicity assay (MTS, 72 h); conditions: Homo sapiens;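 further: compounds tested from 0.1 nM up to 3 µM in four replicate wells, with absorbance read at 490 nm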
[1] = rats
MDA-MB-231/VxR = assay: Cytotoxicity assay (MTS, 72 h); assay type: cell-based; conditions: Homo sapiens, MDA-MB-231, 72 h, read-out: IC50 in Compound 17ya resistant MDA-MD-231/VxR cells

Row | SMILES | percentage of apoptotic cells (A375/TxR cells) | IC50 (A375; A-375, read-out: IC50 (nM) Melanoma A375) | IC50 (A375; A-375, read-out: IC50 ± SEM (nM) A375) | tmax ([1]; Intravenous (2 mg/kg)) | tmax ([1]; Oral (5 mg/kg)) | IC50 (MDA-MB-231/VxR)
1 | COc1ccc2c(c1)NC(=O)CN2c1nc(C)nc2c1CCC2 [Compound 5m, 7-methoxy-4-(2-methyl-6,7-dihydro-5H-cyclopenta[d]pyrimidin-4-yl)-3,4-dihydroquinoxalin-2(1H)-one] | 30% | 1.4 ± 0.2 nM | 1.1 ± 0.1 nM | 5.00 min | 22.5 min | –
2 | CCNc1nc(N2CC(=O)Nc3cc(OC)ccc32)c2ncccc2n1 [Compound 5t, 4-(2-(ethylamino)pyrido[3,2-d]pyrimidin-4-yl)-7-methoxy-3,4-dihydroquinoxalin-2(1H)-one] | 33% | – | – | – | – | 1.2 to 2.9 nM

Where two headings read alike, the source gives them in different places.
